{"sequences": {"note": "Sequences of proteins named here, by UniProt entry; tags and fusion partners are left off.", "UniProt Q09472, whole entry": "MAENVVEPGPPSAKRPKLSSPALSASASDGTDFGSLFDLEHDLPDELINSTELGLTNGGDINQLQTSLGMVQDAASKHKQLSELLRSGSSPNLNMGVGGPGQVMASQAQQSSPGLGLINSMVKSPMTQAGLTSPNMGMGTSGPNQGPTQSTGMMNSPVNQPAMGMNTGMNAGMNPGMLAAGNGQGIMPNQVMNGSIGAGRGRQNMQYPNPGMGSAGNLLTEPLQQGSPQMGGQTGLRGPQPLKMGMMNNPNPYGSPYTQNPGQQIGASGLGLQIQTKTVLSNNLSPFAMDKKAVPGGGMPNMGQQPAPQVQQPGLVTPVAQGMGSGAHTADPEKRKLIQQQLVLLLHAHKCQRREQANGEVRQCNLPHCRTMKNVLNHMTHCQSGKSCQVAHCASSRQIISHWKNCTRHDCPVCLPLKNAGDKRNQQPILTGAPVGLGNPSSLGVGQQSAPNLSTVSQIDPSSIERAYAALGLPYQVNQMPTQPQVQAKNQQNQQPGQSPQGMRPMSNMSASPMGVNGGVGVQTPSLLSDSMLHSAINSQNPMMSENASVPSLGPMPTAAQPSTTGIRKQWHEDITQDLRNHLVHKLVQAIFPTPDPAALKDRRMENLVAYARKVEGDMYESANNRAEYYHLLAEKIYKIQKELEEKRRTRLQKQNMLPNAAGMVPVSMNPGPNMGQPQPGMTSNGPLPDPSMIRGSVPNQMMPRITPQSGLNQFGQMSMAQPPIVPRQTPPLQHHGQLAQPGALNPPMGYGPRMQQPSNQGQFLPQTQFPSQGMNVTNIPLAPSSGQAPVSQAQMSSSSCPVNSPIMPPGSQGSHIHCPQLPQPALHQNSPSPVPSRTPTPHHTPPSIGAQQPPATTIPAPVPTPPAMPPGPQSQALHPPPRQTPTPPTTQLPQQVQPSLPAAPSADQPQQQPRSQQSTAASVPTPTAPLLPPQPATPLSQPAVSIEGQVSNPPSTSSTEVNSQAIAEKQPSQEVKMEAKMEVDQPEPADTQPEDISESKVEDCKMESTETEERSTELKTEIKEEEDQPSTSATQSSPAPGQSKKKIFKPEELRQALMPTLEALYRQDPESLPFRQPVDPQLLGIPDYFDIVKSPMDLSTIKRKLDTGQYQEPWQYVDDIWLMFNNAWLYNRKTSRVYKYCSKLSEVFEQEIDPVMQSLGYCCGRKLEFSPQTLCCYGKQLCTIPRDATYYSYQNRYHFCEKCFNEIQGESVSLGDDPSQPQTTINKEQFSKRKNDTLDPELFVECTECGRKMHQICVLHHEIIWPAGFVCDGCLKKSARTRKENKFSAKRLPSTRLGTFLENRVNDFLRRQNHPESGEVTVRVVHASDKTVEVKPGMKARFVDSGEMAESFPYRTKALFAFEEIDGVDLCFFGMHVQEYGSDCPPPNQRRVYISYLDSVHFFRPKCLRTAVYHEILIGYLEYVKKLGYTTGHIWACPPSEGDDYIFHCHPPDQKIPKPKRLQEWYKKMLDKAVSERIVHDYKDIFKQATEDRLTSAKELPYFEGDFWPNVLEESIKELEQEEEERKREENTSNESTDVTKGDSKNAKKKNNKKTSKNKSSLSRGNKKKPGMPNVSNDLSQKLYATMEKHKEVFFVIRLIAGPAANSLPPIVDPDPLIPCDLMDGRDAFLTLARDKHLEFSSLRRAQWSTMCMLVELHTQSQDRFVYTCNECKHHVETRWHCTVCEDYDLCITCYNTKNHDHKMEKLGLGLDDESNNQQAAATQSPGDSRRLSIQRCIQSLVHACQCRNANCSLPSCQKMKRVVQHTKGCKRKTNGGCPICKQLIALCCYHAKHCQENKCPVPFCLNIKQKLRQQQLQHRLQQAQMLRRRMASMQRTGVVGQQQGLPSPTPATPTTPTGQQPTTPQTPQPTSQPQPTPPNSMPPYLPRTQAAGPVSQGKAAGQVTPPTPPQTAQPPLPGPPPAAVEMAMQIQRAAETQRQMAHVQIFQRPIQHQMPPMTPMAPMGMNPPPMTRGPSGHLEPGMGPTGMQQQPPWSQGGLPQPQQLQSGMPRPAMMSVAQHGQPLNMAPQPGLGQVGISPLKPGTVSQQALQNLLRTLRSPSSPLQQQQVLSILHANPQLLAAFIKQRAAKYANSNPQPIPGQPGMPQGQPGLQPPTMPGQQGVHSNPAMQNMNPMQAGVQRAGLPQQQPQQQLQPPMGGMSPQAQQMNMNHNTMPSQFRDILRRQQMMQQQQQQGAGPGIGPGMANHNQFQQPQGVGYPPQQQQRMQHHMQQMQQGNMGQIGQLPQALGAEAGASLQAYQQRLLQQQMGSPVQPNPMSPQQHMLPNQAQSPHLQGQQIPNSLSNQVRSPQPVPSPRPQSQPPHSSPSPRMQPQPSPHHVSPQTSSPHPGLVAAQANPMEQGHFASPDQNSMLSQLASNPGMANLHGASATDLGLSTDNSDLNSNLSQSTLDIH"}, "source": "ChEMBL document CHEMBL4342520", "about": "“Discovery, Structure-Activity Relationship, and Biological Activity of Histone-Competitive Inhibitors of Histone Acetyltransferases P300/CBP” (J Med Chem, 2020)", "biological_target": "Histone acetyltransferase p300 (Homo sapiens, UniProt Q09472)", "test": "Inhibition of His6-tagged p300 HAT domain (unknown origin) assessed as disruption of p300 and Histone H4 (1-21) peptide interaction incubated for 1 hr by Alpha assay", "how_it_was_run": "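Varying compound concentrations were added in PBS with 0.5% BSA for 1 h. Signal was read with excitation at 680 nm and emission at 570 nm. A biotinylated His6 peptide served as an interference counter-control. IC50 came from a sigmoidal fit.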"}
{"compound": "CC(C)(C)c1ccc(-c2cc(CNCC3CCNCC3)sc2-c2ccc(C(C)(C)C)cc2)cc1", "values": [{"measurement": "inhibition", "result": "Dose-dependent effect"}]}
